# Results reported in ChEMBL document CHEMBL1133167, “Synthesis and opioid receptor affinity of morphinan and benzomorphan derivatives: mixed kappa agonists and mu agonists/antagonists as potential pharmacotherapeutics for cocaine dependence” (J Med Chem, 2000).
# Sequences of proteins named here, by UniProt entry; tags and fusion partners are left off. A change or cut given only in a name is not applied to a line headed by its entry.
# UniProt P97266, whole entry, looked up: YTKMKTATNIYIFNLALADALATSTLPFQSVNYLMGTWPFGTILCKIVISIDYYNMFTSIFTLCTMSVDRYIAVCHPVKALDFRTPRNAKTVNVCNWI
# UniProt P41144: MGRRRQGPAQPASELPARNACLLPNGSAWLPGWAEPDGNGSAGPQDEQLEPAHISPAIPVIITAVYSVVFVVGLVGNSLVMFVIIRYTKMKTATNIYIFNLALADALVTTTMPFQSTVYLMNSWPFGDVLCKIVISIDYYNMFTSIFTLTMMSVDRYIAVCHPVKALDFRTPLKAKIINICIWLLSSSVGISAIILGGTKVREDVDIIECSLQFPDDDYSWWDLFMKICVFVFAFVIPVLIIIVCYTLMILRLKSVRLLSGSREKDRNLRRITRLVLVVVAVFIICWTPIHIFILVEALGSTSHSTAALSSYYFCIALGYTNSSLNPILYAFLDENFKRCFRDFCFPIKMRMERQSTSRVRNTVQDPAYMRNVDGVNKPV
# pKi: −log10 of the molar value.
# What was measured:
# Mu-type opioid receptor = Mu-type opioid receptor (Cavia porcellus, UniProt P97266); assay: Binding affinity towards Opioid receptor mu 1 by displacing the radioligand [3H]DAMGO from guinea pig brain membrane
# [1] = target: Kappa-type opioid receptor (Cavia porcellus, UniProt P41144); assay: Binding affinity towards Opioid receptor kappa 1 by displacing the radioligand [3H]U-69593 from guinea pig brain membrane
compound,measurement,setting,value
CN(C(=O)Cc1ccc(Cl)c(Cl)c1)C1CCCCC1N1CCCC1 (configuration not stated),pKi,Mu-type opioid receptor,6.66
same,pKi,[1],9.44
